Laboratory results as given in patent US20190345536A1, “DETECTION METHOD FOR CHROMOSOMAL ABNORMALITIES AND METHOD FOR EVALUATING INDUCIBILITY” (Sumitomo Chemical Company, Limited, priority 2016, published 2019).

Test system: human iPS cell-derived T lymphocyte

COc1cc2c(c(OC)c1OC)-c1ccc(OC)c(=O)cc1[C@@H](NC(C)=O)CC2 [COL, colchicine]
judgment result obtained in this Example (in vitro micronucleus test): positive
